Our source for the selectivity ratio values is ChEMBL document CHEMBL5034016 (J Med Chem, 2021).

This data set in a line: Selectivity index, ratio of CC50 for human RD cells to EC50 for antiviral activity against Enterovirus A71 infected in human RD cells. In kind it is toxicity, cell-based. As to conditions: read-out: Ratio CC50/EC50.

Each structure is given as a SMILES string.

For the compound `O=C(CCC(CCC(=O)N[C@H](Cc1c[nH]c2ccccc12)C(=O)O)(CCC(=O)N[C@H](Cc1c[nH]c2ccccc12)C(=O)O)NC(=O)CCOCC(COCCC(=O)NC(CCC(=O)N[C@H](Cc1c[nH]c2ccccc12)C(=O)O)(CCC(=O)N[C@H](Cc1c[nH]c2ccccc12)C(=O)O)CCC(=O)N[C@H](Cc1c[nH]c2ccccc12)C(=O)O)(COCCC(=O)NC(CCC(=O)N[C@H](Cc1c[nH]c2ccccc12)C(=O)O)(CCC(=O)N[C@H](Cc1c[nH]c2ccccc12)C(=O)O)CCC(=O)N[C@H](Cc1c[nH]c2ccccc12)C(=O)O)COCCC(=O)NC(CCC(=O)N[C@H](Cc1c[nH]c2ccccc12)C(=O)O)(CCC(=O)N[C@H](Cc1c[nH]c2ccccc12)C(=O)O)CCC(=O)N[C@H](Cc1c[nH]c2ccccc12)C(=O)O)N[C@H](Cc1c[nH]c2ccccc12)C(=O)O`, the selectivity ratio is 83.
